Reference: paper PMC4168798

Target: Bfl-1 (c-myc-tagged, without the C-terminal trans-membrane region) (human)
Assay: fluorescence polarisation

Question: With “Bim_A2eT_E2gG, N-terminal fluorescein (peptide)” as the substance, how does the Kd read?
Answer: 250 nM
